In this experiment the target is D(2) dopamine receptor (Rattus norvegicus, UniProt P61169). Kind of experiment: Binding affinity for dopamine receptor D2 long expressed in Sf9 cells using [125I]IABN radioligand.

Protein sequences, listed by entry. Tags and fused reporters are not part of them.
UniProt P61169, whole entry: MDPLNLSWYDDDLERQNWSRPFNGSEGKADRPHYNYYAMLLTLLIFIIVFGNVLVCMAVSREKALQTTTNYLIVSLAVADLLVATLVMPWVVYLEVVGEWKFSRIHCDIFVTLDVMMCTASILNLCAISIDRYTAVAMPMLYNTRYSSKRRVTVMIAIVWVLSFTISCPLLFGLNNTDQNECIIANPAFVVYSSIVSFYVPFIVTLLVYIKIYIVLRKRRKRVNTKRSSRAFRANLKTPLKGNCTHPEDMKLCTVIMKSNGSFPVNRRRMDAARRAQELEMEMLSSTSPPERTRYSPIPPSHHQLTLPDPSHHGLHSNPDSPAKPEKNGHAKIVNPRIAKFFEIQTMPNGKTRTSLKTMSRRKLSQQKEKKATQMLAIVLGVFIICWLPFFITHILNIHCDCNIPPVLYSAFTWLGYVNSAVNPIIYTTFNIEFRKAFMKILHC

For orientation: Ki means the equilibrium dissociation constant of an inhibitor or competing ligand from its target. A higher Ki goes with lower affinity.

In turn, `COc1c(C(=O)NC[C@@H]2CCCN2C2CCCCCC2)cc(Br)c2ccccc12` displayed an inhibition constant Ki of 80 nM.

Turning to `COc1c(C(=O)NC[C@H]2CCCN2C2CCCCCC2)cc(Br)c2ccccc12`, the inhibitory constant (Ki) was determined as 63 nM.

(Values after ChEMBL document CHEMBL1134687, “Synthesis and structure-activity relationships of naphthamides as dopamine D3 receptor ligands” (J Med Chem, 2001).)
